For the data set, the system named is snake venom phosphodi-esterase (SVPD).

For the substance TTTTTTTTTTUαT [ISIS 440140], the “Half Life” value (SVPD 0.0005 U/mL, 50 mM Tris-HCl pH 7.5, 8 mM MgCl2, 37° C., oligomer 5 μm, full-length oligomer by IP-HPLC/MS) turned out to be 2.7 min. Also, the “increase of half life compared to unmodified 12 mer DNA oligonucleotide (7157)” value (SVPD treatment, same conditions as the half life) is given as “more than 6 fold”.

For the origin of these results see patent US8546556B2, “Carbocyclic alpha-L-bicyclic nucleic acid analogs” (Isis Pharmaceuticals, Inc, priority 2007, dated 2013).
